# Assay results as given in US8557784B2, “Glycyrrhizinates of morphinan derivatives” (Standard Chem. & Pharm. Co., Ltd., priority 2011, dated 2013).
# Experiment: Solubility in water: water added by degrees until 0.1 g of compound fully dissolves
substance,measurement,setting,value
dextromethorphan glycyrrhizinate,Solubility compared with dextromethorphan hydrobromide,comparison in words,less than dextromethorphan hydrobromide
same,Solubility (28° C.),"water, 28° C.",0.067%
same,Water quantity for dissolving 0.1 g solute,"water, 28° C.",150 mL
